Target: Delta-type opioid receptor (Homo sapiens) (UniProt P41143)
Experiment: [35S]GTP-gamma-S, induced maximal stimulation ( E max ) Delta opioid receptor in guinea pig caudate membranes blocked with 20 nM NTI
Settings: Cavia porcellus

By UniProt entry, the sequences of proteins in these tests, tags left out.
UniProt P41143, whole entry, looked up: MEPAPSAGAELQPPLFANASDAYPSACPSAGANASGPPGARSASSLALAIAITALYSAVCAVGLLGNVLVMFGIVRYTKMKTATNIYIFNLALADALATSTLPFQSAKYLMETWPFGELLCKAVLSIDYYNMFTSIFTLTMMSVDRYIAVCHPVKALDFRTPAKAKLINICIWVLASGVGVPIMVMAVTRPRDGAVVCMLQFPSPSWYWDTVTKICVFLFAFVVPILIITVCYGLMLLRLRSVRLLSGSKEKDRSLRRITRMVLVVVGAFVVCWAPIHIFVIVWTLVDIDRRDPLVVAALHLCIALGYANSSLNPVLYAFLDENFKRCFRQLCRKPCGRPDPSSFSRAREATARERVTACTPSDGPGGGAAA

CN(C(=O)Cc1ccccc1)[C@H]1CC[C@@]2(CCCO2)C[C@@H]1N1CCCC1
Emax: 178
